Measurements published in PMC2728224 (Cancer Chemotherapy and Pharmacology, 2009).

Molecular target: T1, dihydrofolate reductase (DHFR) (Homo sapiens, UniProt P00374)
T1 sequence (P00374 1-187): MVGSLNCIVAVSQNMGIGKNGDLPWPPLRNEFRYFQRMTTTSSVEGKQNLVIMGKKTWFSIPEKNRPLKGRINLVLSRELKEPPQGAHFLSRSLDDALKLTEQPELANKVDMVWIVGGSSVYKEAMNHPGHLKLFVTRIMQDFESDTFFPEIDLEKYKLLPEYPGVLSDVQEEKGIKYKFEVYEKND
Experiment: biochemical

Ki: > 200 nM
SMILES: Nc1nc2[nH]cc(CCc3ccc(C(=O)N[C@@H](CCC(=O)O)C(=O)O)cc3)c2c(=O)[nH]1 [pemetrexed]
